We go through 2 compounds from patent US10150764B2, “Substituted benzene compounds” (Epizyme, Inc., priority 2013, dated 2018).

Protein sequences, listed by entry. Tags and fused reporters are not part of them.
UniProt Q15910, whole entry Y641F: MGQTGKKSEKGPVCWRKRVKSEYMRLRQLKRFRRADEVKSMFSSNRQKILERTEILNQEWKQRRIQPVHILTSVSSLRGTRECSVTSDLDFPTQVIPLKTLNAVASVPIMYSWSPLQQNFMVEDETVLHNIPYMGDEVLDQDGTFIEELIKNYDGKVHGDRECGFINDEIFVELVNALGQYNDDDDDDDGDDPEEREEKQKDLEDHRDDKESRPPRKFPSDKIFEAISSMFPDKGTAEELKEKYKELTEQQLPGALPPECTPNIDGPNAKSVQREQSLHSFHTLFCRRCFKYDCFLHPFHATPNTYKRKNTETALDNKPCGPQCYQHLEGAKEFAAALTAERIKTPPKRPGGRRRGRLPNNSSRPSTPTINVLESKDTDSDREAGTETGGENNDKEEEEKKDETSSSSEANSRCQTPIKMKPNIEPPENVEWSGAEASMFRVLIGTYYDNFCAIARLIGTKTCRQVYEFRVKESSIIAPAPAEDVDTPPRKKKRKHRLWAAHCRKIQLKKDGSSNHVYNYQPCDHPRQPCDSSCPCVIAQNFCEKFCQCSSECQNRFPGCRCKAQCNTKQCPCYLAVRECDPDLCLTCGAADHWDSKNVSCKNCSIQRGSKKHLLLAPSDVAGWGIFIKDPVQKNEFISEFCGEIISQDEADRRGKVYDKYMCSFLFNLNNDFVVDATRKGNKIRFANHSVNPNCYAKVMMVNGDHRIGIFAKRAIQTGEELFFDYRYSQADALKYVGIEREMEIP
UniProt Q15910, whole entry: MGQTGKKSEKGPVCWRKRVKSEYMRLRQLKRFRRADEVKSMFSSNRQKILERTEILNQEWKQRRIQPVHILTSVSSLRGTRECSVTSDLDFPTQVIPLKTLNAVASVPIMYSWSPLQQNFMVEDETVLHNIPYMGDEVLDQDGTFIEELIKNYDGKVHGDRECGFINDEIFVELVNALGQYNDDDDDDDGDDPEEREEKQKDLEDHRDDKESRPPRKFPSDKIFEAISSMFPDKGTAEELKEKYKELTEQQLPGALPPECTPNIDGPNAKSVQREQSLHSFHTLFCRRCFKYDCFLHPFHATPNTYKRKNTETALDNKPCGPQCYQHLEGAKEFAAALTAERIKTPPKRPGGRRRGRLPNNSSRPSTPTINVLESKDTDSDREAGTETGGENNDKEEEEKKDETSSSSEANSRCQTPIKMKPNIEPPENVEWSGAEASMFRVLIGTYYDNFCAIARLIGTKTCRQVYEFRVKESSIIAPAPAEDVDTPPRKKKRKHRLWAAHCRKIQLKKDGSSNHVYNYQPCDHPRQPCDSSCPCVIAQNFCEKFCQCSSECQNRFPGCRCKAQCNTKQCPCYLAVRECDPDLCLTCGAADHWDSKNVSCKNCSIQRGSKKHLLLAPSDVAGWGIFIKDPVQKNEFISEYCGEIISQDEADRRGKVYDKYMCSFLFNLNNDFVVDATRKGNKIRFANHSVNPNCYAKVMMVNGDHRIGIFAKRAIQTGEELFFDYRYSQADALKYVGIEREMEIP

For assay [1], the system named is H3K27me3 in WSU-DLCL2 cells. Put plainly: WSU-DLCL2 methylation assay (H3K27me3 ELISA). The format is cell-based. As to conditions: Homo sapiens, WSUDLCL2, 96 hours incubation, H3K27me3 normalised to total H3. An excerpt:
WSU-DLCL2 Methylation Assay
WSU-DLCL2 suspension cells were purchased from DSMZ (German Collection of Microorganisms and Cell Cultures, Braunschweig, Germany). RPMI/Glutamax Medium, Penicillin-Streptomycin, Heat Inactivated Fetal Bovine Serum, and D-PBS were purchased from Life Technologies, Grand Island, N.Y., USA. Extraction Buffer and Neutralization Buffer (5×) were purchased from Active Motif, Carlsbad, Calif., USA. Rabbit anti-Histone H3 antibody was purchased from Abcam, Cambridge, Mass., USA. Rabbit anti-H3K27me3 and HRP-conjugated anti-rabbit-IgG were purchased from Cell Signaling Technology, Danvers, Mass., USA. TMB “Super Sensitive” substrate was sourced from BioFX Laboratories, Owings Mills, Md., USA. IgG-free Bovine Serum Albumin was purchased from Jackson ImmunoResearch, West Grove, Pa., USA. PBS with Tween (10×PBST) was purchased from KPL, Gaithersburg, Md., USA. Sulfuric Acid was purchased from Ricca Chemical, Arlington, Tex., USA. Immulon ELISA plates were purchased from Thermo, Rochester, N.Y., USA. V-bottom cell culture plates were purchased from Corning Inc., Corning, N.Y., USA. V-bottom polypropylene plates were purchased from Greiner Bio-One, Monroe, N.C., USA.
WSU-DLCL2 suspension cells were maintained in growth medium (RPMI 1640 supplemented with 10% v/v heat inactivated fetal bovine serum and 100 units/mL penicillin-streptomycin) and cultured at 37° C. under 5% CO2. […]
On the technique in general: In an ELISA, binding on a coated surface is turned into a signal by an enzyme label.

Assay [2] deals with EZH2 Y641F mutant (PRC2 enzyme) (Homo sapiens (Human), UniProt Q15910, Y641F). Put plainly: PRC2 enzyme assay on peptide substrate, EZH2 Y641F mutant (H3K27me2 peptide, 3H-SAM Flashplate). As to conditions: Y641F mutant PRC2 4 nM. The format is biochemical.
Assay [3] deals with wild-type EZH2 (PRC2 enzyme) (Homo sapiens (Human), UniProt Q15910). Put plainly: PRC2 enzyme assay on peptide substrate, wild-type EZH2 (H3K27me0 peptide, 3H-SAM Flashplate). It is filed as biochemical. As to conditions: wild-type PRC2 4 nM, read-out: WT EZH2 IC50.

In turn, `CCN(c1cc(Cl)cc(C(=O)NCc2c(CCN(C)C)cc3n(c2=O)NCC3)c1C)[C@H]1CC[C@H](N(C)C)CC1` [Compound 1, 5-chloro-3-(((trans)-4-(dimethylamino)cyclohexyl)(ethyl)amino)-N-((5-(2-(dimethylamino)ethyl)-7-oxo-1,2,3,7-tetrahydropyrazolo[1,5-a]pyridin-6-yl)methyl)-2-methylbenzamide] showed an IC50 in assay [1] of 0.75 µM.
As to `CCN(c1cc(Cl)cc(C(=O)NCc2c(C)n(CC)[nH]c2=O)c1C)C1CCN(CCOC)CC1` [Compound 75, 5-chloro-3-(ethyl(1-(2-methoxyethyl)piperidin-4-yl)amino)-N-((1-ethyl-5-methyl-3-oxo-2,3-dihydro-1H-pyrazol-4-yl)methyl)-2-methylbenzamide], the half-maximal inhibitory concentration (IC50) in assay [2] and in assay [3] was more than 50 µM throughout.

Usually IC50 stands for the point on the concentration scale where inhibition reaches its midpoint.
